Experimental data taken from patent US6979686B1, “Substituted pyrazoles as p38 kinase inhibitors” (Pharmacia Corporation, priority 2001, dated 2005).

Protein sequences, listed by entry. Tags and fused reporters are not part of them.
UniProt Q16539, whole entry: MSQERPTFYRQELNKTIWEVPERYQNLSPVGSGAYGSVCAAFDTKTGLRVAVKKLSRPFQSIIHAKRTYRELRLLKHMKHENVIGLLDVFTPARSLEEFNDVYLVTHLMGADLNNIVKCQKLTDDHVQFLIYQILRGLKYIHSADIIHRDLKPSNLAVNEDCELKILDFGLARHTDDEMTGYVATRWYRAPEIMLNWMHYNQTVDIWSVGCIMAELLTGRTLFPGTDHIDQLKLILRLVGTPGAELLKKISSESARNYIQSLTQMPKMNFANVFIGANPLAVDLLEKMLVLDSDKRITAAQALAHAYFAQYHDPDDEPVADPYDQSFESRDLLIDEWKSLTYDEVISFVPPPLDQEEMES

Legend:
[1] = tested on: human TNF, human whole blood stimulated with LPS; assay: TNF inhibition: human whole blood assay; type: cell-based; details: read-out: TNF Inhibition-Human Whole Blood Assay; Table 10
[2] = tested on: TNF-α, U937 human histiocytic lymphoma cell line; assay: LPS stimulation of TNF production by U937 cells; type: cell-based; details: for U937 Cell % inhib @ conc.: @ 1.0 uM, U937 cells stimulated with LPS
human p38 kinase alpha = human p38 kinase alpha (Homo sapiens, UniProt Q16539); assay: p38 kinase in vitro assay, phosphorylation of biotinylated PHAS-I with 32P-ATP; type: biochemical
[3] = read-out: P38 alpha kinase IC50, in vitro P38-alpha kinase
[4] = read-out: U937 Cell IC50, TNF production, human U937 cells stimulated with LPS

Compound: Clc1ccc(-c2n[nH]c(N3CCSCC3)c2-c2ccncc2)cc1
IC50 [1]: > 25 µM

Compound: O=S(=O)(NCc1[nH]nc(-c2ccc(F)cc2)c1-c1ccncc1)c1ccc2ccccc2c1
U937 Cell % inhib @ conc. ([2]; TNF production): 36.0% @

Compound: Cc1n[nH]c(-c2ccc3c(c2)CCO3)c1-c1ccncc1
IC50 (human p38 kinase alpha; read-out: p38 kinase IC50, activated human p38 kinase alpha, PHAS-I substrate, 50 μM unlabeled ATP): 0.8 µM | IC50 ([2]; read-out: U937 Cell Assay IC50, Table 5, LPS-stimulated U937 cells, TNF-α): 0.208 µM

Compound: O=C(NCc1[nH]nc(-c2ccc(F)cc2)c1-c1ccncc1)N1CCOCC1
IC50 (human p38 kinase alpha; [3]): 0.55 µM | IC50 [2, 4]: > 1 µM

Compound: O=C(NCc1[nH]nc(-c2ccc(F)cc2)c1-c1ccncc1)N1CCCC1
IC50 (human p38 kinase alpha; [3]): 0.53 µM | U937 Cell % inhib @ conc. ([2]; TNF production): 18% @

The remaining lines, values ahead:

IC50 (human p38 kinase alpha; [3]): 0.13 µM
Compound: C[C@@H](NC(=O)NCc1[nH]nc(-c2ccc(F)cc2)c1-c1ccncc1)c1ccccc1

IC50 (human p38 kinase alpha; [3]): 2.4 µM | IC50 [2, 4]: > 1 µM
Compound: CCN(CC)C(=O)NCc1[nH]nc(-c2ccc(F)cc2)c1-c1ccncc1

IC50 (human p38 kinase alpha; [3]): 0.91 µM
Compound: CN(C(=O)NCc1[nH]nc(-c2ccc(F)cc2)c1-c1ccncc1)c1ccccc1

Read-outs that look alike come from different tables or passages of the source. Each block holds one compound with its values, some of them ahead of it.
